Measurements published in US12404261B2, “Compounds and compositions for treating conditions associated with cGAS” (Novartis AG, priority 2020, dated 2025).

Sequences of proteins named here, by UniProt entry; tags and fusion partners are left off. Residues count along the entry.
UniProt Q8N884, 147-522: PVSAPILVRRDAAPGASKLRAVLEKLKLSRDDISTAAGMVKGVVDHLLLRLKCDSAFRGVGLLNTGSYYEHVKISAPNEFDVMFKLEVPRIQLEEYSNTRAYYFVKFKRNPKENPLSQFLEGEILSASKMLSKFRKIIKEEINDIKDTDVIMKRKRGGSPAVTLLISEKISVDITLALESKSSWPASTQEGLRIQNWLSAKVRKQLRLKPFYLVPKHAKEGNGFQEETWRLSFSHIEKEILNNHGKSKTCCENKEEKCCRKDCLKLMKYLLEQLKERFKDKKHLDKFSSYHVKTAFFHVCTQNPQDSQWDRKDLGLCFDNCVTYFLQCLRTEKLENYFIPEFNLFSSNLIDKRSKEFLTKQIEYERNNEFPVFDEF

Molecular target: human truncated cGAS enzyme (147-522 human cGAS) (Homo sapiens (Human), UniProt Q8N884)
Assay: Quantification of cGAS protein inhibition (cGAMP formation measured by LC-MS/MS)
Format: biochemical
Conditions: reported for the potential mixture of co-existing tautomers and/or racemates
Experimental: A reagent buffer was prepared in filtered and autoclaved water according to the following: • 50 mM Tris-buffer pH 7.5 (1 M Tris-buffer pH 7.5, Invitrogen, Cat. No. 15567-027); • 50 mM NaCl (5 M NaCl, Sodium Chloride Solution, Sigma, 59222C-); • 5 mM MgCl2 (1 M MgCl2, Sigma, M1028); • 0.1 mM ZnCl2 (Zinc Chloride [7646-85-7], powder, Cell Culture Tested, Sigma, Z-0152); and • 0.001% Tween 20 (TWEEN 20, Sigma Aldrich, P1379-).
A buffer for the cGAS enzyme was prepared in filtered and autoclaved water according to the following: • 50 mM Tris-buffer pH 7.5; • 5 mM MgCl2; and • 0.001% Tween 20.
Compounds were dispensed to a 386 well plate. […]
The concentration of cGAMP was measured on a LC-MS/MS system consisting of a THERMO Dionex Ultimate LC system with a high pressure pump, an autosampler, a column heating compartment (Reinach, Switzerland) and a SCIEX Triple Quad 5500 (Framingham, MA, USA) mass spectrometer for detection. […] The MS parameters were optimized based on the properties of the compounds to be detected and run in positive multi-reaction mode (MRM) based on the mass transitions. […] All data were analyzed with Excel; and the dose response curves were generated using the auto fitting function of XLfit. The IC50 was determined by plotting the cGAMP concentration ratio (cGAMP divided by the internal standard [^15Ns]-2′3′-cGAMP) versus the concentration of compound.

Structure (SMILES): COc1cc2c(-c3cn[nH]c3)c(-c3nnc(C(C)N(C)C)[nH]3)[nH]c2c(F)c1Cl (stereo not shown) [Example 79, 1-(5-(6-chloro-7-fluoro-5-methoxy-3-(1H-pyrazol-4-yl)-1H-indol-2-yl)-4H-1,2,4-triazol-3-yl)-N,N-dimethylethan-1-amine]
- IC50: 30 nM
